Test results: PubChem BioAssay AID1700 (The Scripps Research Institute Molecular Screening Center, 2009)
Where “and” joins values, the source holds several entries; their conditions need not be identical. Equal entries are not always repeated. The entries are a selection whose mix differs from that of the whole data set. Calls of active or inactive are those of the source.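 The calls were made as follows: active = inhibition above a per-plate limit of that plate's mean compound inhibition plus 3 SD (cut at about 60% in these data); inactive = the rest.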

assay: suppression of KLF5 promoter-driven luciferase – DLD-1 cells, luminescence, primary screen (AID 1700); settings: DLD-1 KLF5 promoter-luciferase reporter, at 5 µM, stronger effect = higher value;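 also: 0% = DMSO wells and 100% = LY294002 at 200 µM; higher means less KLF5 promoter-driven luciferase light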

Row | SMILES | inhibition
1 | O=[N+]([O-])c1ncn(CCn2ncnc2[N+](=O)[O-])n1 | inactive: -10.7%
2 | CC(C)(C)C(=O)NC(Sc1ccncn1)C(Cl)(Cl)Cl (configuration not stated) | inactive: -0.93%
3 | O=C(O)CNc1ccc([As](=O)(O)O)cc1 | inactive: -7.72%
4 | O=[N+]([O-])c1cccc(NC2=NCC(CBr)S2)c1 (configuration not stated) | inactive: -4.98%
5 | O=C(Nc1cc([As](=O)(O)O)ccc1O)c1ccccc1 | inactive: -21.6%
6 | CCN(/C(=N/P(=O)(N1CCOCC1)N1CCOCC1)N1CCOCC1)c1ccc(OC)cc1 | inactive: 12.2%
7 | C[N+]1=C2C=CC=CC=C2SC12C([N+](=O)[O-])=CC([N+](=O)[O-])=C[C-]2[N+](=O)[O-] (configuration not stated) | inactive: 27.4%
8 | Nc1ccc([As](=O)(O)c2ccc(N)cc2)cc1 | inactive: -2.76%
9 | CC1CCN(C(=O)Oc2c(Cl)cc(Cl)c3cccnc23)CC1 | inactive: -20.2%
10 | CN(C)C(=O)OCCc1n(C)cc[n+]1C | inactive: -11%
11 | CC(C)=N/N=C(\N)N[N+](=O)[O-] | inactive: -19.9%
12 | COc1ccc(C2=NCC(CBr)S2)cc1 (configuration not stated) | inactive: -17.2%
13 | O=[N+]([O-])c1cc([N+](=O)[O-])c(CCNc2ccccc2)c([N+](=O)[O-])c1 | inactive: -25.6%
14 | CCc1nc2c(n1)c1c(non1O)c1c2no[n+]1[O-] | inactive: 3.42%
15 | Cc1ccc(NP(=O)(Oc2ccccc2)Oc2ccccc2)nc1 | inactive: 6.55%
16 | CC(=O)N1C2C3N(C(C)=O)C1C1N(C(C)=O)C(C(N1C(C)=O)N3C(C)=O)N2C(C)=O | inactive: -13.9%
17 | O=[N+]([O-])c1cccc2n[nH]nc12 | inactive: -24.5%
18 | O=C(NC(Sc1ccncn1)C(Cl)(Cl)Cl)c1ccccc1 (configuration not stated) | inactive: 18.2%
19 | Cc1c2non([O-])c-2c(C)[n+](=O)[n+]1[O-] | inactive: -15.3%
20 | Oc1ccccc1CNc1ccccn1 | inactive: -12%
21 | Nc1cc(N)c2nonc2c1[N+](=O)[O-] | inactive: -25.8%
22 | CC(C)CC(=O)NC(Sc1ccc(Cl)cc1)C(Cl)(Cl)Cl (configuration not stated) | inactive: -9.96%
23 | Cc1ccc(N/C(=N/P(=O)(N2CCOCC2)N2CCOCC2)N2CCOCC2)cc1 | inactive: -0.58%
24 | NC(=O)c1cc([N+](=O)[O-])cc([N+](=O)[O-])c1N | inactive: -8.01%
25 | CN1CCCC(OC(=O)C(c2ccccc2)c2ccccc2)C1 (configuration not stated) | inactive: -11.2%
26 | Clc1ccc(Cl)c(NC2=NCC(CBr)S2)c1 (configuration not stated) | inactive: -8.49%

Row | SMILES | inhibition
27 | Cc1ccc(OP(=O)(Nc2nccs2)Oc2ccc(C)cc2)cc1 | inactive: -15.7%
28 | COc1ccccc1OP(=O)(Nc1ccc(C)cn1)Oc1ccccc1OC | inactive: -34.3%
29 | O=[N+]([O-])c1cc([N+](=O)[O-])c(CCN2CCOCC2)c([N+](=O)[O-])c1 | inactive: -9.29%
30 | Nc1cccc2ccc([As](=O)(O)O)cc12 | inactive: 0.23%
31 | CCN(N=Nc1nonc1N)c1nonc1N | inactive: -14.8%
32 | O=P(Nc1nc2ccc(Cl)cc2s1)(c1ccccc1)c1ccccc1 | inactive: -32.4%
33 | CC(=O)Nc1ccc([As](=O)(O)O)cc1 | inactive: -21.2%
34 | O=C(O)c1ccccc1[As](=O)(O)O | inactive: -27.5%
35 | Cc1ccc(NP(=O)(Oc2ccccc2F)Oc2ccccc2F)nc1 | inactive: -3.53%
36 | Cc1cc(SC(NC(=O)c2ccc(F)cc2)C(Cl)(Cl)Cl)ncn1 (configuration not stated) | inactive: -1.36%
37 | CCOP(=O)(Nc1ccccc1)OCC | inactive: 4.25% and inactive: -16.5%
38 | CCC(=O)N1C2C3N(C(=O)CC)C1C1N(C(=O)CC)C(C(N1C(=O)CC)N3C(=O)CC)N2C(=O)CC | inactive: 3.79%
39 | O=C(OC1CN2CCC1CC2)c1ccccc1 (configuration not stated) | inactive: -46%
40 | CC(=O)NC(SC(=S)N(CC(C)C)CC(C)C)C(Cl)(Cl)Cl (configuration not stated) | inactive: 1.1%
41 | Cc1ccc(OP(=O)(Nc2ccccn2)Oc2ccc(C)cc2)cc1 | inactive: -4.03%
42 | COC(=O)c1cc2c(s1)N=C(c1ccccc1)N(C)P2(=O)N1CCOCC1 (configuration not stated) | inactive: -8.45%
43 | O=c1c2cc([N+](=O)[O-])ccc2[nH]c2c([N+](=O)[O-])cc([N+](=O)[O-])cc12 | inactive: -9.76%
44 | CN(C)C(=O)Oc1noc2ccccc12 | inactive: -44.2%
45 | Cc1ccccc1OP(=O)(Nc1ccccn1)Oc1ccccc1C | inactive: 9.11%
46 | Cc1ccc(NP(=O)(Oc2cccc(C)c2)Oc2cccc(C)c2)nc1 | inactive: -4.26%
47 | CCOC(=O)NC(Sc1ccccc1)C(Cl)(Cl)Cl (configuration not stated) | inactive: -37.5%
48 | c1ccc(-c2nn[nH]n2)c(-c2nn[nH]n2)c1 | inactive: -19.7%
49 | O=C(NC1CCS(=O)(=O)C1)NP(=S)(Oc1ccccc1)Oc1ccccc1 (configuration not stated) | inactive: -21.1%
50 | CCNC(=S)/N=C(\N)N[N+](=O)[O-] | inactive: -4.54%
51 | CC(=O)c1ccc(N2CC2c2ccncc2)cc1 (configuration not stated) | inactive: -0.15%
52 | CC(=O)Nc1ccc(Oc2c([N+](=O)[O-])cc([N+](=O)[O-])cc2[N+](=O)[O-])cc1 | inactive: -6.79%

Row | SMILES | inhibition
53 | CC(=O)Nc1ccc([As](=O)(O)O)c(O)c1 | inactive: -3.48%
54 | CCOc1ccc(C2=NCC(CBr)S2)cc1 (configuration not stated) | inactive: -20.9%
55 | O=P1(Nc2nc3ccc(Cl)cc3s2)COc2ccccc2O1 (configuration not stated) | inactive: -20.5%
56 | CC(C)(C)C(=O)NC(Sc1ccccc1)C(Cl)(Cl)Cl (configuration not stated) | inactive: -7.2%
57 | O=P(Nc1nccs1)(c1ccccc1)c1ccccc1 | inactive: -4.87%
58 | CC(C)C(=O)NC(Sc1ccccc1)C(Cl)(Cl)Cl (configuration not stated) | inactive: -16.4%
59 | c1nnnn1CCn1cnnn1 | inactive: -0.38%
60 | O=[As](O)(c1ccccc1)c1ccc(O)cc1 | inactive: -22.3%
61 | CC(=O)NC(SC(=S)N(C)C)C(Cl)(Cl)Cl (configuration not stated) | inactive: -2.5%
62 | O=[N+]([O-])c1ncn(CCn2cnc([N+](=O)[O-])n2)n1 | inactive: -24.2%
63 | O=[N+]([O-])c1ccc(O)c(/C=N/Nc2ccc([N+](=O)[O-])cc2[N+](=O)[O-])c1 | inactive: -17.3%
64 | O=C(OC1CN2CCC1CC2)c1cccc(Cl)c1 (configuration not stated) | inactive: -19.3%
65 | C(Cc1nn[nH]n1)Cc1nn[nH]n1 | inactive: -5.77%
66 | Nc1ccc([As](=O)(O)c2ccc([N+](=O)[O-])cc2)cc1 | inactive: 2.97%
67 | CN(C)C1(CNC(=O)c2ccc(Cl)c(S(N)(=O)=O)c2)CCCCC1 | inactive: -49.2%
68 | O=P(Nc1ccccn1)(c1ccc(Br)cc1)c1ccc(Br)cc1 | inactive: -16%
69 | O=P(Nc1nc2ccccc2s1)(c1ccccc1)c1ccccc1 | inactive: -2.02%
70 | O=P1(Nc2ncccn2)COc2ccccc2OC1 | inactive: -27.1%
71 | Nc1cccc([As](=O)(O)c2ccccc2)c1 | inactive: -8.47%
72 | Cc1ccc(OCC(=O)OC2CN3CCC2CC3)cc1 (configuration not stated) | inactive: -2.24%
73 | O=[As](O)(c1cccs1)c1cccs1 | inactive: -20.7%
74 | O=P1(Nc2ccc(Br)cn2)COc2ccccc2OC1 | inactive: -24.9%
75 | Cc1ccc(C(=O)OC2CN3CCC2CC3)cc1 (configuration not stated) | inactive: -32.8%
76 | CC1CCC(C(C)C)C(OP(=O)(Nc2ccccn2)c2ccccc2)C1 (configuration not stated) | inactive: -17.3%
77 | Cc1nn(-c2ccccc2)c2c1P(=O)(N1CCOCC1)N(C)C(c1ccccc1)=N2 (configuration not stated) | inactive: -21.4%
78 | CN(C)C1(CNC(=O)c2ccc(S(C)(=O)=O)cc2)CCCCC1 | inactive: -9.44%

Row | SMILES | inhibition
79 | O=C(/C=C/c1ccccc1)OC1CN2CCC1CC2 (configuration not stated) | inactive: -30.3%
80 | CN(C(=O)Cc1ccc(Cl)c(Cl)c1)[C@@H]1CCCC[C@H]1N1CCCC1 | inactive: -32.6%
81 | CC(C)/C=N\N=C(\N)N[N+](=O)[O-] | inactive: -4.26%
82 | CC1(CBr)Cn2c(nc3ccccc3c2=O)S1 (configuration not stated) | inactive: -22.7%
83 | O=[As](O)(c1ccccc1Br)c1ccccc1Br | inactive: -27.6%
84 | CCOP(=O)(NC(=NC(C)c1ccccc1)NC(C)c1ccccc1)OCC (configuration not stated) | inactive: -10.7%
85 | CCC1=CC2Cc3nc4ccc(Cl)cc4c(N)c3C(C1)C2 (configuration not stated) | inactive: -9.21%
86 | O=P1(Nc2ccccn2)COc2ccccc2OC1 | inactive: -21.3%
87 | CCOP(=O)(Nc1ccc(C)cn1)OCC | inactive: -20.4%
88 | CC(C)(C)C(=O)NC(Sc1ncccn1)C(Cl)(Cl)Cl (configuration not stated) | inactive: -5.23%
89 | Clc1n[nH]nc1-c1nn[nH][15n]1 | inactive: 8.22%
90 | Cc1ccc(NCCc2c([N+](=O)[O-])cc([N+](=O)[O-])cc2[N+](=O)[O-])cc1 | inactive: -32.5%
91 | Nc1cccc2c([As](=O)(O)O)cccc12 | inactive: -7.85%
92 | CCCOP(=S)(Nc1nc(N)cc(=O)[nH]1)OCCC | inactive: -33.2%
93 | CCOP(=O)(Nc1cccc2ccccc12)OCC | inactive: 2.17%
94 | COc1cc(C2NCCC3(OCCO3)C2(C)C)cc(OC)c1OC (configuration not stated) | inactive: -9.44%
95 | O=C(OC1CN2CCC1CC2)c1ccc(Cl)cc1 (configuration not stated) | inactive: -28.6%
96 | CS(=O)(=O)c1ccc(Cl)c(NC(=O)COC(=O)C(O)(c2ccccc2)c2ccccc2)c1 | inactive: -10.9%
97 | O=[As](O)(O)c1cccnc1 | inactive: -36%
98 | COc1cc(C(=O)NCC2(N3CCOCC3)CCCCC2)cc(Cl)c1OC(C)C | inactive: -8.31%
99 | Cc1cccc(OCC(=O)OC2CN3CCC2CC3)c1 (configuration not stated) | inactive: 11%
100 | O=[As](O)(c1cccc(O)c1)c1cccc(O)c1 | inactive: -5.83%
101 | CCOP1(=S)c2c(C)nn(CCC#N)c2N=C(c2ccc(F)cc2)N1C (configuration not stated) | inactive: 4.95%
102 | O=[N+]([O-])c1ccc2c(c1)nnn2O | inactive: -7.48%
